Reference: ChEMBL document CHEMBL2440048, “Novel carvedilol analogues that suppress store-overload-induced Ca2+ release” (J Med Chem, 2013)

Experiment: Inhibition of RyR2 R4496C mutant (unknown origin)-mediated store-overload induced calcium release expressed in HEK293 cells after 8 to 10 mins by fura-2/AM dye-based fluorescence assay
Type: cell-based
Conditions: Homo sapiens

SMILES | IC50
COc1ccccc1OCCN(C)CC(COc1cccc2c1c1ccccc1n2C)OC (stereo not drawn) | 11.7 µM
c1ccc2c(c1)[nH]c1cccc(OCC3CN(CCOC4CCCCC4)CCO3)c12 (stereo not drawn) | > 1000 µM
COc1cc(Cl)c(Cl)cc1OCCN1CC(COc2cccc3[nH]c4ccccc4c23)OCC1=O (stereo not drawn) | > 1000 µM
OC(COc1ccc2c(c1)[nH]c1ccccc12)CN1CCOc2ccccc21 (stereo not drawn) | > 1000 µM
CCCCCCCCCCCCCCCCCC(=O)n1c2ccccc2c2c(OCC3CN(CCOc4ccccc4OC)C(=O)CO3)cccc21 (stereo not drawn) | 86.5 µM
Oc1ccc2[nH]c3ccc(Br)cc3c2c1Br | > 1000 µM
OC(COc1ccc2c(c1)[nH]c1ccc(F)cc12)CN1CCOc2ccccc21 (stereo not drawn) | > 1000 µM
O=C1COC(COc2cccc3[nH]c4ccccc4c23)CN1CCOc1cc(Cl)c(Cl)cc1Cl (stereo not drawn) | > 1000 µM
COc1ccccc1OCCNC(=O)COc1cccc2[nH]c3ccccc3c12 | 3.55 µM
COc1ccccc1OCC(CO)NC(=O)COc1cccc2[nH]c3ccccc3c12 (stereo not drawn) | 3.63 µM

Further lines, results first:

IC50 | SMILES
> 1000 µM | COc1ccccc1OCCN1CC(CCOc2ccc3c(c2)[nH]c2ccccc23)OCC1=O (stereo not drawn)
> 1000 µM | OC(CNCc1nc2ccccc2o1)COc1ccc2c(c1)[nH]c1ccccc12 (stereo not drawn)
> 1000 µM | CCCCCCCCCCCCCCCCCC(=O)n1c2ccccc2c2c(OCC(O)CNCCOc3ccccc3OC)cccc21 (stereo not drawn)
> 1000 µM | COc1ccccc1OCCNCC(O)COc1ccc2[nH]ncc2c1 (stereo not drawn)
> 1000 µM | COc1ccccc1OCCNCC(O)COc1ccc2[nH]c(=O)ccc2c1 (stereo not drawn)
> 1000 µM | OC(CNCc1cc2ccccc2o1)COc1ccc2c(c1)[nH]c1ccccc12 (stereo not drawn)
> 1000 µM | COc1ccccc1OCCNCC(O)COc1ccc2c(c1)NC(=O)CC2 (stereo not drawn)
> 1000 µM | COc1ccccc1OCCN1CC(COc2ccc3[nH]c4ccc(Br)cc4c3c2Br)OCC1=O (stereo not drawn)
